Measured values taken from patent US10442819B2, “Tricyclic compounds as inhibitors of mutant IDH enzymes” (Merck Sharp & Dohme Corp., priority 2014, dated 2019).

By UniProt entry, the sequences of proteins in these tests, tags left out.
UniProt O75874, whole entry R132H: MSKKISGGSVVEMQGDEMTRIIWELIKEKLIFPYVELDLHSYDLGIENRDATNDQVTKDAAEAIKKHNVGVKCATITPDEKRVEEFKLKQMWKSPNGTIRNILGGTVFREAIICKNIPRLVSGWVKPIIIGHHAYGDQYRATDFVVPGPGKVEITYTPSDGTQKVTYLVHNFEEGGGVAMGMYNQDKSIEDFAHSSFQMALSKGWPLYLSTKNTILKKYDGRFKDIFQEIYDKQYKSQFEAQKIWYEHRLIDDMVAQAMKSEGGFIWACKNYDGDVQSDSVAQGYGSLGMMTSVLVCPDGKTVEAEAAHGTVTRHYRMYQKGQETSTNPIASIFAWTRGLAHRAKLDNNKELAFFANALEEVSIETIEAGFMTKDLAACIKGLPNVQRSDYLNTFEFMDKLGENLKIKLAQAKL

Target: R132H mutant IDH1 enzyme (Homo sapiens (Human), UniProt O75874, R132H)
Test: R132H IDH1 Enzymatic Assay
Type: biochemical
Conditions: R132H mutant IDH1 enzyme 1.5 nM final; luminescence readout; read-out: IC50

| Compound | IC50 |
| --- | --- |
| CC(C)C1CCC(C(=O)N2Cc3cccnc3Nc3ccccc32)CC1 (stereo not shown) [Example 68, 6-{[4-(1-methylethyl)cyclohexyl]carbonyl}-6,11-dihydro-5H-pyrido[2,3-b][1,5]benzodiazepine] | 53 nM |
| CCCCC[C@H]1CC[C@H](C(=O)N2Cc3cccnc3Nc3ccccc32)CC1 [Example 69, 6-[(trans-4-pentylcyclohexyl)carbon-yl]-6,11-dihydro-5H-pyrido[2,3-b][1,5]benzodiazepine] | 344 nM |
| CC(C)(C)[C@H]1CC[C@H](C(=O)N2Cc3cccnc3Nc3ccccc32)CC1 [Example 70, 6-[(trans-4-tert-butylcyclohexyl)carbon-yl]-6,11-dihydro-5H-pyrido[2,3-b][1,5]benzodiazepine] | 36 nM |
| O=C(C1CCCCCC1)N1Cc2cccnc2Nc2ccccc21 [Example 71, 6-(cycloheptylcarbonyl)-6,11-dihydro-5H-pyrido[2,3-b][1,5]benzodiazepine] | 975 nM |
| C[C@H]1CC[C@@](C)(C(=O)N2Cc3cccnc3Nc3ccc(N4CCOCC4)cc32)C1(C)C [Example 72, 8-morpholin-4-yl-6-{[(1R,3S)-1,2,2,3-tetramethylcyclopentyl]carbonyl}-6,11-dihydro-5H-pyrido[2,3-b][1,5]benzodiazepine] | 561 nM |
| O=C(N1Cc2cccnc2Nc2ccc(N3CCOCC3)cc21)C1(F)CCCCC1 [Example 73, 6-[(1-fluorocyclohexyl)carbon-yl]-8-morpholin-4-yl-6,11-dihydro-5H-pyrido[2,3-b][1,5]benzodiazepine] | 927 nM |
| COC1CCC(C(=O)N2Cc3cccnc3Nc3ccc(Br)cc32)CC1 (stereo not shown) [Example 74, 8-bromo-6-[(4-methoxycyclohexyl)car-bonyl]-6,11-dihydro-5H-pyrido[2,3-b][1,5]benzodiazepine] | 330 nM |
| O=C(C1CCC(C(F)(F)F)CC1)N1Cc2cccnc2Nc2ccc(Br)cc21 (stereo not shown) [Example 75, 8-bromo-6-{[4-(trifluoromethyl)cyclohex-yl]carbonyl}-6,11-dihydro-5H-pyrido[2,3-b][1,5]benzodiazepine] | 83 nM |
| C[C@H]1CC(F)(F)CC[C@@H]1C(=O)N1Cc2cccnc2Nc2ccc(N3CCOCC3)cc21 [Example 76, 6-{[(1S,2S)-4,4-difluoro-2-methylcyclohexyl]carbon-yl}-8-morpholin-4-yl-6,11-dihydro-5H-pyrido[2,3-b][1,5]benzodiazepine] | 489 nM |
| O=C(C1CCC(F)(F)CC1)N1Cc2cccnc2Nc2ccc(N3CCOCC3)cc21 [Example 77, 6-[(4,4-difluorocyclohexyl)car-bonyl]-8-morpholin-4-yl-6,11-dihydro-5H-pyrido[2,3-b][1,5]benzodiazepine] | 676 nM |
| COCC1CCC(C(=O)N2Cc3cccnc3Nc3ccc(N4CCOCC4)cc32)CC1 (stereo not shown) [Example 84, 6-{[4-(methoxymethyl)cyclo-hexyl]carbonyl}-8-morpholin-4-yl-6,11-dihydro-5H-pyrido[2,3-b][1,5]benzodiazepine] | 636 nM |
| CC1CCCCC1C(=O)N1Cc2cccnc2Nc2ccc(N3CCOCC3)cc21 (stereo not shown) [Example 85, 6-[(2-methylcyclohexyl)carbon-yl]-8-morpholin-4-yl-6,11-dihydro-5H-pyrido[2,3-b][1,5]benzodiazepine] | 807 nM |
| N#C[C@H]1CC[C@H](C(=O)N2Cc3cccnc3Nc3ccc(N4CCOCC4)cc32)CC1 [Example 86, trans-4-[(8-morpholin-4-yl-5,11-dihydro-6H-pyrido[2,3-b][1,5]benzodiazepin-6-yl)carbonyl]cyclohexane carbonitrile] | 801 nM |
| COC(C)C1CCC(C(=O)N2Cc3cccnc3Nc3ccc(N4CCOCC4)cc32)CC1 (stereo not shown) [Example 87, 6-{[4-(1-methoxyethyl)cyclohexyl]-carbonyl}-8-morpholin-4-yl-6,11-dihydro-5H-pyrido[2,3-b][1,5]benzodiazepine] | 204 nM |
| COC1(C)CCC(C(=O)N2Cc3cccnc3Nc3ccc(N4CCOCC4)cc32)CC1 (stereo not shown) [Example 88, 6-[(4-methoxy-4-methylcyclohexyl)carbon-yl]-8-morpholin-4-yl-6,11-dihydro-5H-pyrido[2,3-b][1,5]benzodiazepine] | 980 nM |
| COC(C)(C)[C@H]1CC[C@H](C(=O)N2Cc3cccnc3Nc3ccc(N4CCOCC4)cc32)CC1 [Example 89, 6-{[trans-4-(1-methoxy-1-methylethyl)cyclohexyl]-carbonyl}-8-morpholin-4-yl-6,11-dihydro-5H-pyrido[2,3-b][1,5]benzodiazepine] | 104 nM |
| O=C([C@H]1CC[C@H](OC2CC2)CC1)N1Cc2cccnc2Nc2ccc(N3CCOCC3)cc21 [Example 90, 6-{[trans-4-(cyclopropyloxy)cyclo-hexyl]carbonyl}-8-morpholin-4-yl-6,11-dihydro-5H-pyrido[2,3-b][1,5]benzodiazepine] | 104 nM |

| Compound | IC50 |
| --- | --- |
| O=C([C@H]1CC[C@@H](OC2CC2)CC1)N1Cc2cccnc2Nc2ccc(N3CCOCC3)cc21 [Example 91, 6-{[cis-4-(cyclopropyloxy)cyclo-hexyl]carbonyl}-8-morpholin-4-yl-6,11-dihydro-5H-pyrido[2,3-b][1,5]benzodiazepine] | 126 nM |
| CO[C@H]1CC[C@H](C(=O)N2Cc3cccnc3Nc3ccc(N4CCOCC4)cc32)C[C@H]1C [Example 92, 6-{[(1S,3R,4S)-4-methoxy-3-methylcyclohexyl]carbon-yl}-8-morpholin-4-yl-6,11-dihydro-5H-pyrido[2,3-b][1,5]benzodiazepine] | 282 nM |
| CO[C@H]1CC[C@@H](C(=O)N2Cc3cccnc3Nc3ccc(N4CCOCC4)cc32)C[C@H]1C [Example 93, 6-{[(1R,3R,4S)-4-methoxy-3-methylcyclohexyl]carbon-yl}-8-morpholin-4-yl-6,11-dihydro-5H-pyrido[2,3-b][1,5]benzodiazepine] | 218 nM |
| O=C(C1CCCCC1)N1Cc2cccnc2Nc2ccc(N3CCOCC3)cc21 [Example 94, 6-(cyclohexylcarbonyl)-8-morpholin-4-yl-6,11-dihydro-5H-pyrido[2,3-b][1,5]benzodiazepine] | 561 nM |
| O=C([C@H]1CC[C@H](OC2CCC2)CC1)N1Cc2cccnc2Nc2ccc(N3CCOCC3)cc21 [Example 95, 6-{[trans-4-(cyclobutyloxy)cyclohex-yl]carbonyl}-8-morpholin-4-yl-6,11-dihydro-5H-pyrido[2,3-b][1,5]benzodiazepine] | 78 nM |
| O=C([C@H]1CC[C@@H](OC2CCC2)CC1)N1Cc2cccnc2Nc2ccc(N3CCOCC3)cc21 [Example 96, 6-{[cis-4-(cyclobutyloxy)cyclohex-yl]carbonyl}-8-morpholin-4-yl-6,11-dihydro-5H-pyrido[2,3-b][1,5]benzodiazepine] | 111 nM |
| CO[C@@H]1CC[C@H](C(=O)N2Cc3cccnc3Nc3ccc(N4CCOCC4)cc32)C[C@@H]1C(F)(F)F [Example 101, 6-{[(1S,3S,4R)-4-methoxy-3-(trifluoromethyl)cyclohex-yl]carbonyl}-8-morpholin-4-yl-6,11-dihydro-5H-pyrido[2,3-b][1,5]benzodiazepine] | 620 nM |
| O=C([C@H]1CC[C@H](O[C@H]2CC2(F)F)CC1)N1Cc2cccnc2Nc2ccc(N3CCOCC3)cc21 [Example 102, 6-[(trans-4-{[(1S)-2,2-difluorocyclopropyl]oxy}-cyclohexyl)carbonyl]-8-morpholin-4-yl-6,11-dihydro-5H-pyrido[2,3-b][1,5]benzodiazepine] | 120 nM |
| O=C([C@H]1CC[C@@H](O[C@@H]2CC2(F)F)CC1)N1Cc2cccnc2Nc2ccc(N3CCOCC3)cc21 [Example 103, 6-[(cis-4-{[(1R)-2,2-difluorocyclopropyl]oxy}-cyclohexyl)carbonyl]-8-morpholin-4-yl-6,11-dihydro-5H-pyrido[2,3-b][1,5]benzodiazepine] | 69 nM |
| CO[C@@H]1CC[C@@H](C(=O)N2Cc3cccnc3Nc3ccc(N4CCOCC4)cc32)C[C@@H]1C [Example 106, 6-{[(1R,3S,4R)-4-methoxy-3-methylcyclohexyl]carbon-yl}-8-morpholin-4-yl-6,11-dihydro-5H-pyrido[2,3-b][1,5]benzodiazepine] | 155 nM |
| CO[C@@H]1C[C@H](C)[C@H](C(=O)N2Cc3cccnc3Nc3ccc(N4CCOCC4)cc32)C[C@@H]1C [Example 107, 6-{[(1R,2S,4R,5S)-4-methoxy-2,5-dimethylcyclohexyl]car-bonyl}-8-morpholin-4-yl-6,11-dihydro-5H-pyrido[2,3-b][1,5]benzodiazepine] | 31 nM |
| CC(C)O[C@H]1CC[C@H](C(=O)N2Cc3cccnc3Nc3ccc(N4CCOCC4)cc32)CC1 [Example 110, 6-{[trans-4-(1-methylethoxy)cyclohexyl]-carbonyl}-8-morpholin-4-yl-6,11-dihydro-5H-pyrido[2,3-b][1,5]benzodiazepine] | 50 nM |
| CC(C)(C)O[C@H]1CC[C@H](C(=O)N2Cc3cccnc3Nc3ccc(N4CCOCC4)cc32)CC1 [Example 111, 6-[(trans-4-tert-butoxycyclohexyl)carbon-yl]-8-morpholin-4-yl-6,11-dihydro-5H-pyrido[2,3-b][1,5]benzodiazepine] | 34 nM |
| O=C(C1CCN(CC(F)(F)F)CC1)N1Cc2cccnc2Nc2ccc(N3CCOCC3)cc21 [Example 112, 8-morpholin-4-yl-6-{[1-(2,2,2-trifluoroethyl)piperidin-4-yl]carbonyl}-6,11-dihydro-5H-pyrido[2,3-b][1,5]benzodiazepine] | 84 nM |
| CCO[C@H]1CC[C@H](C(=O)N2Cc3cccnc3Nc3ccc(N4CCOCC4)cc32)CC1 [Example 113, 6-[(trans-4-ethoxycyclohexyl)carbon-yl]-8-morpholin-4-yl-6,11-dihydro-5H-pyrido[2,3-b][1,5]benzodiazepine] | 194 nM |
| CCO[C@H]1CC[C@@H](C(=O)N2Cc3cccnc3Nc3ccc(N4CCOCC4)cc32)CC1 [Example 114, 6-[(cis-4-ethoxycyclohexyl)carbon-yl]-8-morpholin-4-yl-6,11-dihydro-5H-pyrido[2,3-b][1,5]benzodiazepine] | 204 nM |
| CO[C@@H]1CC[C@H](C(=O)N2Cc3cccnc3Nc3ccc(N4CCOCC4)cc32)[C@H](C)C1 [Example 115, 6-{[(1S,2R,4R)-4-methoxy-2-methylcyclohexyl]carbon-yl}-8-morpholin-4-yl-6,11-dihydro-5H-pyrido[2,3-b][1,5]benzodiazepine] | 440 nM |
